Legend:
[1] = biological target: receptor encoded by the DOR-1 clone (delta opioid receptor) (Mus musculus, UniProt P32300, V68C)
[2] = biological target: T1, DOR-2 (mMOR-1) mu receptor (Mus musculus, UniProt P42866, H54D/R258Q/R47P/S53N/V245G); format: binding, murine
T1 construct: expressed in transfected cells

Chains of the proteins cited; added tags and fusions are not shown.
UniProt P32300, whole entry V68C: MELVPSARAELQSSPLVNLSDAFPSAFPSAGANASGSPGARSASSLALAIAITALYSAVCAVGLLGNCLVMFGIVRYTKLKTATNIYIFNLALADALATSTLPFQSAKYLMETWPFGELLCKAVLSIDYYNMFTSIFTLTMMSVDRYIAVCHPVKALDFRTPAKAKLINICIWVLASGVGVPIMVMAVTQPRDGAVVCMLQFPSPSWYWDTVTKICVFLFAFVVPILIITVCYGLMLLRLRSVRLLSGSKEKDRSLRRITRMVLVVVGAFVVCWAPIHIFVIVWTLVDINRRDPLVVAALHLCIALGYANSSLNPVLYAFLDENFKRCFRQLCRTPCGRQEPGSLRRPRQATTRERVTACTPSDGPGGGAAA
UniProt P42866, whole entry R47P/S53N/H54D/V245G/R258Q: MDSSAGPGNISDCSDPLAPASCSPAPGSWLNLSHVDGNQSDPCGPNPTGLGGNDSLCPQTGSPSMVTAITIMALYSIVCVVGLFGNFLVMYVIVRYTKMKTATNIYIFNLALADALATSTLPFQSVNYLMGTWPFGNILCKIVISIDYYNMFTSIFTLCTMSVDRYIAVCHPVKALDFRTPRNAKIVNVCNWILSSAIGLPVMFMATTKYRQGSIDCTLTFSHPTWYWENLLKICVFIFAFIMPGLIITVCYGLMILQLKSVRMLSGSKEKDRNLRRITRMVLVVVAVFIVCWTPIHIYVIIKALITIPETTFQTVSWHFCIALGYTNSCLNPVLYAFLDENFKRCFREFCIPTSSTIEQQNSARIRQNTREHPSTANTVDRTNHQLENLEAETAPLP

[3] = biological target: DOR-1 clone (delta opioid receptor) (Mus musculus, UniProt P32300, V68C)

Substance | displacement of 3H-diprenorphine [1] | displacement of 3H-diprenorphine, rank in decreasing order of affinity [1] | displacement of 3H-DPN [2] | displacement of 125I-DADLE binding [3]
dynorphin 1-17 | displaced | in decreasing order of affinity, was observed for DSLET, DPDPE and DADLE, and Dynorphin 1-17 |  | 
(D-Pen^2, D-Pen^5) enkephalin [DPDPE] | displaced | in decreasing order of affinity, was observed for DSLET, DPDPE and DADLE, and Dynorphin 1-17 | did not displace | displaced by nanomolar concentrations
(D-Ser^2) leucine enkephalin Thr [DSLET] | displaced | in decreasing order of affinity, was observed for DSLET, DPDPE and DADLE, and Dynorphin 1-17 |  | displaced by nanomolar concentrations
